{"source": "paper PMC10079235", "about": "(PLOS Neglected Tropical Diseases, 2023)", "key": {"HCT-8/WT cells": {"system": "HCT-8/WT cells", "assay": "MTS cytotoxicity (drug tolerance) assay", "settings": "no drug selection", "protocol": "(§1) Host cell drug tolerance to specified inhibitors was evaluated by 3-(4,5-dimethylthiazol-2-yl)-5-(3-carboxymethoxyphenyl)-2-(4-sulfophenyl)-2H-tetrazolium (MTS) assay. WT and transgenic host cells were seeded in 96-well plates (10,000 cells/well) and cultured for 24 h, followed by the addition of specified compounds at serially diluted concentrations and continued culture for 41 h. After 3 washes with serum-free medium, MTS solution (Saint-Bio, Shanghai, China) was added into the plates (20 μL/well) and incubated at 37°C for 2 h. Optical density at 490 nm (OD490) was measured using a Synergy LX multi-mode reader (BioTek, Winooski, VT). Drug tolerance was indicated by half-maximal cytotoxic concentrations (TC50 values) calculated by nonlinear regression using 4PL model. Selectivity index (SI) for each compound was determined by the ratio between TC50 and EC50 values (SI = TC50/EC50)."}, "HCT-8/NC cells": {"system": "HCT-8/NC cells", "assay": "MTS cytotoxicity (drug tolerance) assay", "settings": "no drug selection"}, "HCT-8/NC(NTZ) cells": {"system": "HCT-8/NC(NTZ) cells", "assay": "MTS cytotoxicity (drug tolerance) assay", "settings": "after selection by NTZ", "protocol": "as §1\n(§2) Surviving cells were allowed to recover in drug-free medium for 3–5 d to near confluence (round 1). The selection/recovery cycle were repeated once (round 2). […] Finally, all cells were cultured at the final selection concentrations of PTX or NTZ for ≥7 d, followed by culture in drug-free medium for 14 d. At this time point, cells were used for cytotoxicity and efficacy assays or cryopreserved in a liquid nitrogen tank. […]"}, "HCT-8/WT(NTZ) cells": {"system": "HCT-8/WT(NTZ) cells", "assay": "MTS cytotoxicity (drug tolerance) assay", "settings": "after selection by NTZ", "protocol": "as §1, §2"}, "HCT-8/WT(PTX) cells": {"system": "HCT-8/WT(PTX) cells", "assay": "MTS cytotoxicity (drug tolerance) assay", "settings": "after selection by PTX", "protocol": "as §1\n(§3) Surviving cells were allowed to recover in drug-free medium for 3–5 d to near confluence (round 1). The selection/recovery cycle were repeated once (round 2). […] The resulting cell lines after PTX or NTZ selection were designated as WT(PTX), NC(PTX) and MDR1(PTX), or WT(NTZ), NC(NTZ) and MDR1(NTZ), respectively (Tables 1 and S2)."}, "HCT-8/NC(PTX) cells": {"system": "HCT-8/NC(PTX) cells", "assay": "MTS cytotoxicity (drug tolerance) assay", "settings": "after selection by PTX", "protocol": "as §1, §3"}, "HCT-8/MDR1(NTZ) cells": {"system": "HCT-8/MDR1(NTZ) cells", "assay": "MTS cytotoxicity (drug tolerance) assay", "settings": "after selection by NTZ", "protocol": "as §1, §3"}, "HCT-8/MDR1(PTX) cells": {"system": "HCT-8/MDR1(PTX) cells", "protocol": "as §1, §3"}, "HCT-8/MDR1 cells": {"system": "HCT-8/MDR1 cells", "assay": "MTS cytotoxicity (drug tolerance) assay", "settings": "no drug selection"}}}
{"substance": "Ivermectin", "values": [{"measurement": "TC50", "setting": "HCT-8/WT cells", "result": 15.52, "unit": "µM"}, {"measurement": "TC50", "setting": "HCT-8/NC cells", "result": 15.29, "unit": "µM"}, {"measurement": "TC50", "setting": "HCT-8/NC(NTZ) cells", "result": 15.18, "unit": "µM"}, {"measurement": "TC50", "setting": "HCT-8/WT(NTZ) cells", "result": 14.75, "unit": "µM"}, {"measurement": "TC50", "setting": "HCT-8/WT(PTX) cells", "result": 14.51, "unit": "µM"}, {"measurement": "TC50", "setting": "HCT-8/NC(PTX) cells", "result": 14.64, "unit": "µM"}, {"measurement": "TC50", "setting": "HCT-8/MDR1(NTZ) cells", "result": 22.59, "unit": "µM"}, {"measurement": "TC50", "setting": "HCT-8/MDR1(PTX) cells; MDR1(PTX) cells, after selection by PTX", "result": 36.37, "unit": "µM"}, {"measurement": "Pct change of TC50 (vs NC)", "setting": "HCT-8/MDR1(PTX) cells; MDR1(PTX) vs NC cells", "result": 137.9, "unit": "%"}, {"measurement": "TC50", "setting": "HCT-8/MDR1 cells", "result": 24.02, "unit": "µM"}]}
